Data taken from PMC3662788, “The Catalytic Roles of P185 and T188 and Substrate-Binding Loop Flexibility in 3α-Hydroxysteroid Dehydrogenase/Carbonyl Reductase from Comamonas testosteroni” (PLoS ONE, 2013).
Numbering of substitutions follows the chain as printed.

What was measured:
T188A mutant 3α-HSD/CR = molecular target: T1, T188A mutant 3α-HSD/CR (Comamonas testosteroni, UniProt P80702, T188A); assay: NADH binding by quenching of intrinsic enzyme fluorescence (fluorescence titration); details: 2 µM enzyme, 40 mM Hepes pH 7.5, room temperature
T1 construct: His-tag (inferred from pET15b vector and Ni-NTA purification) (N); made in house; host or cells: Escherichia coli BL21(DE3)

P185A mutant 3α-HSD/CR = molecular target: T2, P185A mutant 3α-HSD/CR (Comamonas testosteroni, UniProt P80702, P185A); assay: as above; set-up: His-tag (inferred from pET15b vector and Ni-NTA purification) (N); made in house; host or cells: Escherichia coli BL21(DE3); details: 2 µM enzyme, 40 mM Hepes pH 7.5, room temperature
T2 sequence (P80702 1-257 P185A): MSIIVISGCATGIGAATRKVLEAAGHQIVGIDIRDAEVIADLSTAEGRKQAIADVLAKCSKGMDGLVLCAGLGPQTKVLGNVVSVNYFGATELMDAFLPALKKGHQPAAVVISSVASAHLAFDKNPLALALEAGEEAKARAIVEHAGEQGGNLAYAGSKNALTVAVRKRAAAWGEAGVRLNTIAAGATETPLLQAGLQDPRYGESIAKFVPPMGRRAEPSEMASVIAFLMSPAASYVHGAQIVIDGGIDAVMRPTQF

T188S mutant 3α-HSD/CR = molecular target: T3, T188S mutant 3α-HSD/CR (Comamonas testosteroni, UniProt P80702, T188S); assay: as above; details: 2 µM enzyme, 40 mM Hepes pH 7.5, room temperature
T3 construct: His-tag (inferred from pET15b vector and Ni-NTA purification) (N); made in house; host or cells: Escherichia coli BL21(DE3)

wild-type 3α-HSD/CR = molecular target: T4, wild-type 3α-HSD/CR (Comamonas testosteroni, UniProt P80702); set-up: His-tag (inferred from pET15b vector and Ni-NTA purification) (N); made in house; host or cells: Escherichia coli BL21(DE3); method as in PMID 19853671; details: wild-type NADH-enzyme complex, fluorescence titration, pH 7.5; cited from earlier work
T4 sequence (P80702 1-257): T2 sequence (P80702 1-257 P185A) with A185P

## NADH
T188A mutant 3α-HSD/CR
  Kd: 97 ± 6 µM
P185A mutant 3α-HSD/CR
  Kd: 163 ± 29 µM
T188S mutant 3α-HSD/CR
  Kd: 94 ± 6 µM
wild-type 3α-HSD/CR
  Kd: 2.8 ± 0.9 µM
